Assay [1] deals with T1, BPTF bromodomain (Homo sapiens, UniProt Q12830). Kind of assay: BPTF AlphaScreen competitive inhibition assay. Type of assay: binding. More on the design: 30 nM for His9-tagged BPTF bromodomain and 50 nM for the biotinylated peptide were used; made in house.
Assay [2] has as its target T1, BPTF bromodomain. The settings on record: reported; cited from earlier work.

Each structure is given as a SMILES string. Like-named read-outs stand apart in the source and are kept apart here.

The text below walks through data of patent publication US20230391730A1, “INHIBITORS OF THE BROMODOMAIN PHD FINGER TRANSCRIPTION FACTOR (BPTF) AS ANTI-CANCER AGENTS” (Regents of the University of Minnesota, priority 2020, published 2023).

In the case of `Cn1ncc(N[C@H]2CCNC2)c(Cl)c1=O` [Compound 2], the IC50 (commonly the concentration that gives 50% inhibition) in assay [1] was in the range of 7.7 to 31 µM.

Regarding `Cn1ncc(NC2CNC2)c(Cl)c1=O` [Compound 4, 5-(azetidin-3-ylamino)-4-chloro-2-methylpyridazin-3(2H)-one], in assay [1] (read-out: BPTF AlphaScreen IC50), the 50% inhibitory concentration (IC50) lay within 7.7 to 31 µM. As to `COC(=O)c1cccc(NC(=O)N[C@H]2CCN(c3ccnc(Nc4ccc(F)cc4)n3)C2)c1` [AU1, reference compound], the dissociation constant (Kd) (as a rule, the free concentration of one partner at which half of the binding sites on the other are occupied at equilibrium, for simple one-to-one binding) in assay [2] is 2.8 µM. As for `Cn1ncc(N[C@@H]2CCNC2)c(Cl)c1=O` [Compound 1], the IC50 in assay [1] fell in the range of 7.7 to 31 µM.
